As a reminder, the Kd is a measure of binding affinity in units of concentration. Low values mean a tighter complex, high ones a looser complex.

Chains of the proteins cited; added tags and fusions are not shown. Residues count along the entry.
UniProt P22303, 32-614 limits assumed: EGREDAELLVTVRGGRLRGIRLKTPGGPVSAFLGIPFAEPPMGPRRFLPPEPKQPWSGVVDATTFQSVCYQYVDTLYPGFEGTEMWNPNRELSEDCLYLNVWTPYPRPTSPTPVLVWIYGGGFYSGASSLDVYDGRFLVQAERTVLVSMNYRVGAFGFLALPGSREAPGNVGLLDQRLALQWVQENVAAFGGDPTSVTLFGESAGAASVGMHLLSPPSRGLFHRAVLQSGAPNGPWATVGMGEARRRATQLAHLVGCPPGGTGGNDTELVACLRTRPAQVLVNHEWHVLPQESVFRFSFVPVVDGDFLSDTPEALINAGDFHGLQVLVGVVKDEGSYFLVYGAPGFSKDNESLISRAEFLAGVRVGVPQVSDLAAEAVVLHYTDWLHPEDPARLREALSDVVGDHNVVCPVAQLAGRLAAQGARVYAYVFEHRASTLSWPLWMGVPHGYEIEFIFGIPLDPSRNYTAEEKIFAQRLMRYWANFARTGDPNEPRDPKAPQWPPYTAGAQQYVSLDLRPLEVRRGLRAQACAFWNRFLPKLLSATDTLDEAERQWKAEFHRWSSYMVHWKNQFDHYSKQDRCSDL

SMILES strings stand for the structures.

Our source for the Kd values is ChEMBL document CHEMBL3351781, “Assessment of antidotal efficacy of cholinesterase reactivators against paraoxon: In vitro reactivation kinetics and physicochemical properties” (2014).

In this experiment the target is Acetylcholinesterase (Homo sapiens, UniProt P22303). In words: Binding affinity to paraoxon-inhibited AChE (unknown origin).

`C[n+]1ccc(/C=N/O)cc1`: the Kd amounted to 96.2 µM.
